As a reminder, the IC50 is the concentration at which inhibition is half-maximal. Read a low IC50 as inhibition by little substance.

Protein sequences, listed by entry. Tags and fused reporters are not part of them. Residues count along the entry.
UniProt O75417, 1780-2590: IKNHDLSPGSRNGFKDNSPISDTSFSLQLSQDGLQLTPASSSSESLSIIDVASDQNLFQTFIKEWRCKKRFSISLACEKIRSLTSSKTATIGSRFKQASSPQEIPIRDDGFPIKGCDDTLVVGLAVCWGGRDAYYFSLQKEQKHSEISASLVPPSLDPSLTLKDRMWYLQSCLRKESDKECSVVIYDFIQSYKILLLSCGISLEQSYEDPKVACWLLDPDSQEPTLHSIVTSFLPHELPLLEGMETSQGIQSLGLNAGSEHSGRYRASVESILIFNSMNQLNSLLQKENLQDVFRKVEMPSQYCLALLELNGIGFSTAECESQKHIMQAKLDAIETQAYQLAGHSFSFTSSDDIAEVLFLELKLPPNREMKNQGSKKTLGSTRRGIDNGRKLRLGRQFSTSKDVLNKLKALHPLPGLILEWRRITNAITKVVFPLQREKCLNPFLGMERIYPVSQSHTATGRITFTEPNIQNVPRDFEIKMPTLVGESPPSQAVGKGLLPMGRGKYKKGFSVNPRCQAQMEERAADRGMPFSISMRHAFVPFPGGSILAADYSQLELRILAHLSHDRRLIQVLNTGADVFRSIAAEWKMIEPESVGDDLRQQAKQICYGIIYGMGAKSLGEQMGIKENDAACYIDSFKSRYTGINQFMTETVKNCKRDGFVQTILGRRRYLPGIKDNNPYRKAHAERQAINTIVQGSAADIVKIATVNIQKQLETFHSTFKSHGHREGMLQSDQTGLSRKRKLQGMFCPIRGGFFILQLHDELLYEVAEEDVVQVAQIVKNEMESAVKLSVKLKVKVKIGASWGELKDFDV

The assay deals with isolated polymerase domain (I1780-V2590) of DNA polymerase theta (Polθ) (Homo sapiens (Human), UniProt O75417). Briefly: biochemical.

As to `CC1(Oc2ncnc3c2nc(-c2ccc(OCCC(C)(C)C(=O)O)cc2Cl)n3Cc2cccc(Cl)c2)CC1` [Example T435, 4-(3-chloro-4-(9-(3-chlorobenzyl)-6-(1-methylcyclopropoxy)-9H-purin-8-yl)phenoxy)-2,2-dimethylbutanoic acid], the half-inhibitory concentration (IC50) is 6.31 nM.

On to `CC(C)(COc1ccc(-c2nc3c(OC4(C)CC4)ncnc3n2Cc2cccc(Cl)c2)c(Cl)c1)CC(=O)O` [Example T436, 4-(3-chloro-4-(9-(3-chlorobenzyl)-6-(1-methylcyclopropoxy)-9H-purin-8-yl)phenoxy)-3,3-dimethylbutanoic acid], for which half-maximal inhibition (IC50) was put at 7.94 nM.

The compound `CC1(Oc2ncnc3c2nc(-c2ccc(OCCCCCC(=O)O)cc2Cl)n3Cc2cccc(Cl)c2)CC1` [Example T437, 6-(3-chloro-4-(9-(3-chlorobenzyl)-6-(1-methylcyclopropoxy)-9H-purin-8-yl)phenoxy)hexanoic acid] gave an IC50 of 3.98 nM.

In the case of `CC1(Oc2ncnc3c2nc(-c2cccc(OCCCCCC(=O)O)c2Cl)n3Cc2cccc(Cl)c2)CC1` [Example T440, 6-(2-chloro-3-(9-(3-chlorobenzyl)-6-(1-methylcyclopropoxy)-9H-purin-8-yl)phenoxy)hexanoic acid], the IC50 is 6.31 nM.

`CC1(Oc2ncnc3c2nc(-c2cccc(OCCC(C)(C)C(=O)O)c2Cl)n3Cc2cccc(Cl)c2)CC1` [Example T442, 4-(2-chloro-3-(9-(3-chlorobenzyl)-6-(1-methylcyclopropoxy)-9H-purin-8-yl)phenoxy)-2,2-dimethylbutanoic acid] showed an IC50 of 3.16 nM.

`CC1(Oc2ncnc3c2nc(-c2ccc(OCCCCOCC(=O)O)cc2Cl)n3Cc2cccc(Cl)c2)CC1` [Example T445, 2-(4-(3-chloro-4-(9-(3-chlorobenzyl)-6-(1-methylcyclopropoxy)-9H-purin-8-yl)phenoxy)butoxy)acetic acid] had an IC50 of 5.01 nM.

On to `CC1(Oc2ncnc3c2nc(-c2cccc(OCCCCOCC(=O)O)c2Cl)n3Cc2cccc(Cl)c2)CC1` [Example T448, 2-(4-(2-chloro-3-(9-(3-chlorobenzyl)-6-(1-methylcyclopropoxy)-9H-purin-8-yl)phenoxy)butoxy)acetic acid], for which half-maximal inhibition (IC50) required 7.94 nM.

As to `CC1(Oc2ncnc3c2nc(-c2ccc(OCCCOCCC(=O)O)cc2Cl)n3Cc2cccc(Cl)c2)CC1` [Example T449, 3-(3-(3-chloro-4-(9-(3-chlorobenzyl)-6-(1-methylcyclopropoxy)-9H-purin-8-yl)phenoxy)propoxy)propanoic acid], it took 3.16 nM to reach half-maximal inhibition (IC50).

For `CC1(Oc2ncnc3c2nc(-c2ccc(OCCOC(C)(C)C(=O)O)cc2Cl)n3Cc2cccc(Cl)c2)CC1` [Example T450, 2-(2-(3-chloro-4-(9-(3-chlorobenzyl)-6-(1-methylcyclopropoxy)-9H-purin-8-yl)phenoxy)ethoxy)-2-methylpropanoic acid], the IC50 was 2.51 nM.

Consider `CC1(Oc2ncnc3c2nc(-c2ccc(OCCOCCOCC(=O)O)cc2Cl)n3Cc2cccc(Cl)c2)CC1` [Example T451, 2-(2-(2-(3-chloro-4-(9-(3-chlorobenzyl)-6-(1-methylcyclopropoxy)-9H-purin-8-yl)phenoxy)ethoxy)ethoxy)acetic acid], for which the IC50 was 3.98 nM.

Consider `CC1(Oc2ncnc3c2nc(-c2ccc(OCCCN4CC(O)C4)cc2Cl)n3Cc2cc(C(F)F)ccn2)CC1` [Example T452, 1-(3-(3-chloro-4-(9-((4-(difluoromethyl)pyridin-2-yl)methyl)-6-(1-methylcyclopropoxy)-9H-purin-8-yl)phenoxy)propyl)azetidin-3-ol], for which the IC50 was 7.94 nM.

Compound `CC1(Oc2ncnc3c2nc(-c2ccc(OCCN4CCNCC4)cc2C(F)(F)F)n3Cc2cc(Cl)ccn2)CC1` [Example T453, 9-((4-chloropyridin-2-yl)methyl)-6-(1-methylcyclopropoxy)-8-(4-(2-(piperazin-1-yl)ethoxy)-2-(trifluoromethyl)phenyl)-9H-purine] gave a half-maximal inhibitory concentration (IC50) of 10 nM.

As to `Cc1ccnc(Cn2c(-c3ccc(OC4CC5(CNC5)C4)cc3Cl)nc3c(OC4(C)CC4)ncnc32)c1` [Example T457, 8-(4-((2-azaspiro[3.3]heptan-6-yl)oxy)-2-chlorophenyl)-6-(1-methylcyclopropoxy)-9-((4-methylpyridin-2-yl)methyl)-9H-purine], 3.98 nM corresponded to half-maximal inhibition (IC50).

The compound `Cc1ccnc(Cn2c(-c3ccc(CC(=O)N4CC[C@@H](O)C4)cc3Cl)nc3c(OC4(C)CC4)ncnc32)c1` [Example T458, (R)-2-(3-chloro-4-(6-(1-methylcyclopropoxy)-9-((4-methylpyridin-2-yl)methyl)-9H-purin-8-yl)phenyl)-1-(3-hydroxypyrrolidin-1-yl)ethan-1-one] had an IC50 of 10 nM.

`Cc1ccnc(Cn2c(-c3ccc(C(=O)N4CCC[C@@H]4CO)cc3Cl)nc3c(OC4(C)CC4)ncnc32)c1` [Example T459, (R)-(3-chloro-4-(6-(1-methylcyclopropoxy)-9-((4-methylpyridin-2-yl)methyl)-9H-purin-8-yl)phenyl)(2-(hydroxymethyl)pyrrolidin-1-yl)methanone] gave an IC50 of 25.1 nM.

Regarding `Cc1ccnc(Cn2c(-c3ccc(C(=O)N4CCC(O)CC4)cc3Cl)nc3c(OC4(C)CC4)ncnc32)c1` [Example T460, (3-chloro-4-(6-(1-methylcyclopropoxy)-9-((4-methylpyridin-2-yl)methyl)-9H-purin-8-yl)phenyl)(4-hydroxypiperidin-1-yl)methanone], inhibition was half-maximal at 63.1 nM (IC50).

Turning to `Cc1ccnc(Cn2c(-c3ccc(C(=O)N4CCC[C@H](O)C4)cc3Cl)nc3c(OC4(C)CC4)ncnc32)c1` [Example T461, (S)-(3-chloro-4-(6-(1-methylcyclopropoxy)-9-((4-methylpyridin-2-yl)methyl)-9H-purin-8-yl)phenyl)(3-hydroxypiperidin-1-yl)methanone], inhibition was half-maximal at 63.1 nM (IC50).

For `Cc1ccnc(Cn2c(-c3ccc(C(=O)N(C)CC4(O)CC4)cc3Cl)nc3c(OC4(C)CC4)ncnc32)c1` [Example T462, 3-chloro-N-((1-hydroxycyclopropyl)methyl)-N-methyl-4-(6-(1-methylcyclopropoxy)-9-((4-methylpyridin-2-yl)methyl)-9H-purin-8-yl)benzamide], the IC50 is 63.1 nM.

In turn, `Cc1ccnc(Cn2c(-c3ccc(C(=O)N4CC[C@@](C)(O)C4)cc3Cl)nc3c(OC4(C)CC4)ncnc32)c1` [Example T463, (R)-(3-chloro-4-(6-(1-methylcyclopropoxy)-9-((4-methylpyridin-2-yl)methyl)-9H-purin-8-yl)phenyl)(3-hydroxy-3-methylpyrrolidin-1-yl)methanone] showed an IC50 of 31.6 nM.

Consider `Cc1ccnc(Cn2c(-c3ccc(C(=O)N4CC[C@@H](CO)C4)cc3Cl)nc3c(OC4(C)CC4)ncnc32)c1` [Example T464, (R)-(3-chloro-4-(6-(1-methylcyclopropoxy)-9-((4-methylpyridin-2-yl)methyl)-9H-purin-8-yl)phenyl)(3-(hydroxymethyl)pyrrolidin-1-yl)methanone], for which the IC50 is 15.8 nM.

On to `CO[C@H]1CCN(C(=O)c2ccc(-c3nc4c(OC5(C)CC5)ncnc4n3Cc3cc(C)ccn3)c(Cl)c2)C1` [Example T465, (S)-(3-chloro-4-(6-(1-methylcyclopropoxy)-9-((4-methylpyridin-2-yl)methyl)-9H-purin-8-yl)phenyl)(3-methoxypyrrolidin-1-yl)methanone], for which it took 15.8 nM to reach half-maximal inhibition (IC50).

These data come from patent US20250195530A1, “POLQ INHIBITORS” (ASTRAZENECA AB, priority 2022, published 2025).
